Assay results as given in ChEMBL document CHEMBL1140569, “Synthesis and structure-activity relationships of thieno[2,3-b]pyrroles as antagonists of the GnRH receptor” (Bioorg Med Chem Lett, 2007).

Target: T1, Gonadotropin-releasing hormone receptor (Rattus norvegicus, UniProt P30969)
T1 sequence (P30969 whole entry): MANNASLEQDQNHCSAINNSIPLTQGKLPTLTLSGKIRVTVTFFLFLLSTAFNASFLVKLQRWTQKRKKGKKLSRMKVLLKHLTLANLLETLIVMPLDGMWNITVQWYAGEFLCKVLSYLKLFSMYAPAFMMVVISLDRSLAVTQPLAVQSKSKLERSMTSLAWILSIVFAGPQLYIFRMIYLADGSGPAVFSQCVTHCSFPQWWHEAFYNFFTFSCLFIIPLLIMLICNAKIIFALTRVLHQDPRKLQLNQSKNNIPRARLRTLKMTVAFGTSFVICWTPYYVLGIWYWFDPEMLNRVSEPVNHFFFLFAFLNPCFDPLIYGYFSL
Test: Displacement of [125I]D-Trp from rat GnRH receptor

An IC50 of 101 nM was found for `Cc1cc(C)cc(-c2[nH]c3sc(C(C)(C)C(=O)N4C5CCC4CC5)cc3c2C(=O)CN2CCN(CC(=O)N3CCCC3)CC2)c1` in this work.
